# Ab-14 heavy chain CDR variants: yeast mating affinities

Values reported by Engelhart et al. 2022, doi:10.1038/s41597-022-01779-4 (FLAb copy).

All variants were tested on one target, the spike HR2 peptide PDVDLGDISGINAS (SARS-CoV-2).

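The parent was found by panning a naive human phage display library on the peptide. Library AAYL49 holds single substitutions and randomly drawn double and triple substitutions in the CDRs. AlphaSeq pools MATa yeast showing the antibodies with MATalpha yeast showing the peptide. After mating in shaken culture at 30 °C for 16 h, diploids were selected and their barcode pairs sequenced. Each replicate has its own calibration line, from reference interactions of the BCL2 family. Each pool was mated in three replicate cultures.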

The variants keep the light chain, the linker and the frameworks of Ab-14 (scFv order VH, the linker GGGGSGGGGSGGGGS, VL).
VH: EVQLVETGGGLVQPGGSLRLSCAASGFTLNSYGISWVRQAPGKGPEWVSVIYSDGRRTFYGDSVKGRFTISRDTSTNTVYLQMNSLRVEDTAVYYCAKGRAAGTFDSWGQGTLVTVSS
VL: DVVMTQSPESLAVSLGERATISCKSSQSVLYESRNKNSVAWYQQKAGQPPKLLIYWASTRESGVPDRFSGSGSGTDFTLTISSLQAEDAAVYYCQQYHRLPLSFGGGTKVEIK

Positions count from residue 1 of the parent VH; G26E puts E in place of G.
Numbers give log10(Kd / nM), so 0 is 1 nM and 3 is 1 µM. Smaller is tighter.
"nd" marks a missing value. The strain was present, yet no cells mated with the target were sequenced in that replicate, which points to weak or no binding.
In this assay the parent's reference entry averaged 0.65; its copy inside this library read 4.11 (one replicate of three).
Three control strains display no target. For library AAYL49, 15% of the pairings with them gave a signal, with a median of 4.06 and one signal in twenty below 2.83, so weak values seen in few replicates may be background. The control count says in how many pairings with the empty strains this scFv gave a signal, with their mean in brackets.

changes | log10 Kd (nM) by replicate | empty controls
G26E/G33A/S53H | nd / nd / nd | 1/9 (5.23)
A101W/F105G | 0.70 / 0.63 / 0.57 | 3/9 (3.80)
R56V/T58V/F59V | 1.36 / 1.24 / 1.36 | 0/9
G26N/S53I/T104G | nd / nd / nd | 1/9 (2.56)
D54P/R56L/T104L | nd / nd / nd | 2/9 (4.02)
G26S/S63G/G99V | 4.01 / 3.65 / 5.11 | 4/9 (4.70)
S35L/D54T/R56D | 3.45 / nd / nd | 1/9 (3.08)
N30V/D54V/S63N | nd / nd / nd | 0/9
S35F/I51L/V64S | nd / 4.39 / 4.48 | 5/9 (4.47)
Y32V/G61R/A102S | 2.92 / nd / nd | 2/9 (3.51)
S31H/R100S | 0.84 / 1.60 / 1.88 | 0/9
F59T/S107P | nd / nd / nd | 0/9
K65L/A101I | 1.56 / 1.70 / 1.67 | 2/9 (3.43)
I51L/S63Q | 2.01 / 1.95 / 2.36 | 0/9
F27M/S31G/V64K | nd / nd / nd | 0/9
I34D/T104L | nd / nd / nd | 1/9 (2.94)
Y32V/R57I/Y60E | 6.23 / 3.91 / 4.25 | 5/9 (4.64)
I34C/G55R/R57K | 3.22 / 3.07 / nd | 0/9
I51N/Y60G/T104W | nd / nd / 4.01 | 3/9 (4.86)
D106H/S107T | 0.39 / 0.67 / 0.49 | 2/9 (3.93)
S35G/R56Q/S107K | nd / nd / nd | 0/9
S35I/F59W/F105D | 3.33 / nd / nd | 0/9
G33L/R100W/T104M | nd / nd / nd | 0/9
F27L/A102P/T104C | nd / nd / nd | 0/9
G26E/S53Y/A101W | 1.65 / 1.30 / 1.46 | 1/9 (5.12)
G33C/I51T/A101I | nd / 4.29 / nd | 2/9 (4.15)
S31K/S63R/R100Q | 0.82 / 1.00 / 0.99 | 1/9 (5.13)
G33A/Y60T/K65V | nd / nd / nd | 0/9
G33K/S35Q/I51N | 3.86 / nd / nd | 0/9
I51H/S53L/D54E | nd / nd / nd | 1/9 (3.64)
S35A/Y52T | nd / 2.83 / nd | 0/9
T28P/L29I/K65S | 1.61 / 1.57 / 2.25 | 0/9
G33E/G55D/K65P | nd / nd / nd | 1/9 (2.86)
N30D/S53E/F105P | nd / nd / nd | 0/9
G26T/G99S/T104W | 5.24 / 4.21 / nd | 2/9 (5.15)
N30R/I51Y/D54E | nd / nd / nd | 0/9

Extract of 3 entries:

| changes | log10 Kd (nM) by replicate | empty controls |
|---|---|---|
| I51N/Y60G/T104W | nd / nd / 4.01 | 3/9 (4.86) |
| G26E/G33A/S53H | nd / nd / nd | 1/9 (5.23) |
| G26T/G99S/T104W | 5.24 / 4.21 / nd | 2/9 (5.15) |